These results are taken from US4737504A (dated 1988).

Protein sequences, listed by entry. Tags and fused reporters are not part of them. Residues count along the entry.
UniProt H0W3H1, 1-470: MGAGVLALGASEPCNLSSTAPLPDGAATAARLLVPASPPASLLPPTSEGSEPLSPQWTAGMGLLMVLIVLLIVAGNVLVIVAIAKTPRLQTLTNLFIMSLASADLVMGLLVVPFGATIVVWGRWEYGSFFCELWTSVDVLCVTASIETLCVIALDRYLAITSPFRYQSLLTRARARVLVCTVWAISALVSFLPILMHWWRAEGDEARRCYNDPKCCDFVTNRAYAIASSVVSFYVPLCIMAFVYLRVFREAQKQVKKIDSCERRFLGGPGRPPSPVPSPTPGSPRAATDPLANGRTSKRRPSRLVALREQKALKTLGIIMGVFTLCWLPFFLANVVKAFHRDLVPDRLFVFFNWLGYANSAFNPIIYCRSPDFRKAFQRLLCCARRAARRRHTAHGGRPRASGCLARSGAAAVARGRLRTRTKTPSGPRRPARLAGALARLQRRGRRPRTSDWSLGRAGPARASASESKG

The assay deals with β1-adrenoceptors (guinea pig atria) (Cavia porcellus, UniProt H0W3H1). The assay can be described thus: chronotropic response of spontaneously beating guinea pig right atria (β1-adrenergic activity).

Take `COc1cc(CC2NCCc3cc(O)c(O)cc32)cc(OC)c1OC` (stereo not shown) [TMQ, trimetoquinol, reference compound]: the EC50 is 0.0302 µM.
